From paper PMC7240701 (Journal of medicinal chemistry, 2019)

Chains of the proteins cited; added tags and fusions are not shown. Residues count along the entry.
UniProt P07711, 114-333: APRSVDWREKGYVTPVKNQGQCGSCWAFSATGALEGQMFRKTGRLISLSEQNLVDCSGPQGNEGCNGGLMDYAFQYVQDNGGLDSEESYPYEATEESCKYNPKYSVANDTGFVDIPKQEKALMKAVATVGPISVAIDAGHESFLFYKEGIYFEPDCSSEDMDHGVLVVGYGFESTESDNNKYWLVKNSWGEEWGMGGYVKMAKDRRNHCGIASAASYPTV

Biological target: Cathepsin L (Homo sapiens, UniProt P07711)
Test: Preincubation-dilution reversibility experiment
Format: biochemical

Row | Structure (SMILES) | catalytic activity upon dilution | mode of inhibition | reduction of enzymatic reaction rate / product formation after dilution [%]
1 | CC(C)CCNC(=O)[C@H](CC(C)C)NC(=O)[C@H]1O[C@@H]1C(=O)O [E-64c, reference compound] | matched the response of natural product 1 | – | –
2 | CC[C@H](C)[C@@H](C(=O)O[C@@H](CC(C)C)C(=O)N[C@@H](CC(C)C)C(=O)N[C@@H](C)/C=C/C(=O)N1C(=O)C=C(OC)[C@@H]1C)N(C)C [compound 1, Gallinamide A] | approximately 5% | irreversible | 95
3 | CC[C@H](C)[C@@H](C(=O)O[C@@H](CC(C)C)C(=O)N[C@@H](CC(C)C)C(=O)N[C@@H](C)CCC(=O)N1C(=O)C=C(OC)[C@@H]1C)N(C)C [compound 17, (S)-1-(((S)-1-(((S)-5-((S)-3-Methoxy-2-methyl-5-oxo-2,5-dihydro-1H-pyrrol-1-yl)-5-oxopentan-2-yl)amino)-4-methyl-1-oxopentan-2-yl)amino)-4-methyl-1-oxopentan-2-yl dimethyl-L-isoleucinate] | – | – | 25
